The values below come from PubChem BioAssay AID624418 (National Center for Advancing Translational Sciences (NCATS), 2012).

SMILES strings stand for the structures. Only a part is listed here, and it is no random draw. Records with an inconclusive call do not appear. Activity calls are given as the source filed them. Calls come from the whole dose curve; as a rule, active = well fitted inhibition curve with a large enough effect; inconclusive = small, poorly fitted or top-dose-only effect, or another doubt; inactive = no such curve, though single readings can be large or run the other way.
% is set by controls: 0 for no effect and ±100 for the full control effect.

A short description of this assay: qHTS of GLP-1 Receptor Inverse Agonists: Cytotox Screen.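 Note: loss of luciferase light is scored as toxicity.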 To be noted: HEK293 cAMP-luciferase reporter cells, luminescence, 24 h; series mostly up to 38.3 µM; activity change, negative = inhibition: at the top concentration. An excerpt:
The overall goal of this project was to develop a novel assay for discovering small molecule ligands for class B1 G protein-coupled receptors (GPCRs). Very few agonists (or inverse agonists) with generally weak activity for this entire group of physiologically important receptors are known to date. To establish proof-of-principle that this critical bottleneck can be overcome with a suitable screening approach, our studies focused on the class B1 receptor for glucagon-like peptide-1 (GLP-1R), a potential therapeutic target for diabetes and neurodegenerative disease.
The assay was developed using a cell-based functional readout. Toward this goal, stably transfected HEK293 cell clones were established that co-express (i) a cAMP-responsive luciferase reporter gene, and (ii) constitutively active GLP-1R that upon ligand interaction inhibit (inverse agonists) the luciferase activity. In addition, two control cell lines were developed: (i) one that express only the cAMP-responsive reporter gene to enable initial exclusion of GLP-1R independent effects of candidate probes; and (ii) one with the reported gene cloned with another constitutively active orphan receptor GPR119 to enable exclusion of GLP-1R independent inhibitor effects of candidate inverse agonists.
To that end, this assay was optimized for 1536-well format and screened against the MLSMR. Then the same collection was run in this cytotoxicity assay where inhibition was the undesired outcome.
NIH Molecular Libraries Probe Production Network [MLPCN]
NIH Chemical Genomics Center [NCGC]
PI Name: Martin Beinborn, Tufts Medical Center
Six ul of cell suspension (200 cells/uL in DMEM + 10% Nu serum + 1% pen-strep) is dispensed in a white solid 1536-well plate. The plates are incubated for 12 hours at 37 deg C at 5% CO2 followed by addition of 23 nL compounds. After 24 hr incubation at 37 deg C and 5% CO2, 3 uL of luciferase assay detection reagent is added. A luminescence read is obtained on the PerkinElmer Viewlux after 12 min incubation at room temperature.
`CS(=O)(=O)c1cc([N+](=O)[O-])c2no[n+]([O-])c2c1`: the “activity change, negative = inhibition” value is inactive: 42.8%.

Consider `O=P(Nc1nccs1)(Oc1ccccc1)Oc1ccccc1`, for which the “activity change, negative = inhibition” value was inactive: -8.71%.

For the compound `CCOP1(=S)c2c(C)nn(CCC#N)c2N=C(c2ccccc2F)N1C` (stereo not given), the “activity change, negative = inhibition” value is inactive: 11.1%.

As to `O=C(O)COc1ccc([As](=O)(O)O)cc1[N+](=O)[O-]`, the “activity change, negative = inhibition” value is inactive: -0.599%.

In the case of `Nc1ccccc1[As](=O)(O)c1ccccc1`, the “activity change, negative = inhibition” value was inactive: -3.35%.

As to `NC(=O)Nc1ccc([As](=O)(O)O)cc1`, the “activity change, negative = inhibition” value is inactive: 1.5%.

Regarding `CN(C(=O)Cc1ccc(Cl)c(Cl)c1)[C@H]1CC[C@@]2(CCCO2)C[C@@H]1N1CCCC1`, the “activity change, negative = inhibition” value is inactive: 4.38%.

`O=[N+]([O-])c1ccc2c(c1)nnn2O`: the “activity change, negative = inhibition” value was inactive: -2.85%.

For the compound `CN(C(=O)Cc1ccccc1)[C@@H]1CC[C@]2(CCCO2)C[C@H]1N1CCCC1`, the “activity change, negative = inhibition” value was inactive: 0.281%.

As for `CCOP1(=S)c2c(C)nn(CCC#N)c2N=C(c2ccc(F)cc2)N1C` (stereo not given), the “activity change, negative = inhibition” value was inactive: -0.673%.

Consider `N#CCCN(C(=O)COC(=O)C(O)(c1ccccc1)c1ccccc1)c1ccc(F)cc1`, for which the “activity change, negative = inhibition” value is inactive: -1.3%.

Take `CS(=O)(=O)c1ccc(Cl)c(NC(=O)COC(=O)C(O)(c2ccccc2)c2ccccc2)c1`: the “activity change, negative = inhibition” value is inactive: -13.4%.

With `COc1cc(C(=O)NCC2(N3CCOCC3)CCCCC2)cc(Cl)c1OC(C)C`, the “activity change, negative = inhibition” value is inactive: -4.62%.

Regarding `O=[As](O)(O)c1cccnc1`, the “activity change, negative = inhibition” value is inactive: 0.402%.

As for `O=C(OC1CN2CCC1CC2)c1ccc(Cl)cc1` (stereo not given), the “activity change, negative = inhibition” value is inactive: -5.03%.

Take `O=[As](O)(c1cccc(O)c1)c1cccc(O)c1`: the “activity change, negative = inhibition” value is inactive: 3.74%.

On to `Cc1cccc(OCC(=O)OC2CN3CCC2CC3)c1` (stereo not given), for which the “activity change, negative = inhibition” value is inactive: 8.08%.

With `CCCOP(=S)(Nc1nc(N)cc(=O)[nH]1)OCCC`, the “activity change, negative = inhibition” value was inactive: -24.6%.

`Nc1cccc2c([As](=O)(O)O)cccc12`: the “activity change, negative = inhibition” value is inactive: 20.8%.

With `Cc1ccc(NCCc2c([N+](=O)[O-])cc([N+](=O)[O-])cc2[N+](=O)[O-])cc1`, the “activity change, negative = inhibition” value is inactive: -22.3%.

Turning to `CCOP(=O)(Nc1cccc2ccccc12)OCC`, the “activity change, negative = inhibition” value was inactive: 0.0567%.

`COc1cc(C2NCCC3(OCCO3)C2(C)C)cc(OC)c1OC` (stereo not given): the “activity change, negative = inhibition” value is inactive: -6.07%.

As to `CN(CCCl)Cc1cc(Cl)c(NC2=NCCN2)c(Cl)c1`, the “activity change, negative = inhibition” value was inactive: -4.19%.

In the case of `CCOP(=O)(Nc1ccc(C)cn1)OCC`, the “activity change, negative = inhibition” value is inactive: 18.4%.

As for `CCOP(=O)(NC(=NC(C)c1ccccc1)NC(C)c1ccccc1)OCC` (stereo not given), the “activity change, negative = inhibition” value was inactive: 2.43%.

As for `CCC1=CC2Cc3nc4ccc(Cl)cc4c(N)c3C(C1)C2` (stereo not given), the “activity change, negative = inhibition” value is inactive: -19.8%.

On to `O=P1(Nc2ccccn2)COc2ccccc2OC1`, for which the “activity change, negative = inhibition” value is inactive: 25.3%.

Take `CC(C)(C)C(=O)NC(Sc1ncccn1)C(Cl)(Cl)Cl` (stereo not given): the “activity change, negative = inhibition” value was inactive: 1.49%.

With `Clc1n[nH]nc1-c1nn[nH][15n]1`, the “activity change, negative = inhibition” value is inactive: 3.23%.

Regarding `O=P1(N(CCCl)CCCl)NCCC(C(F)(F)F)O1` (stereo not given), the “activity change, negative = inhibition” value was inactive: 5.77%.

Regarding `COc1ccccc1CNC(=O)COC(=O)C(O)(c1ccccc1)c1ccccc1`, the “activity change, negative = inhibition” value is inactive: 2.09%.

In the case of `CC1(CBr)Cn2c(nc3ccccc3c2=O)S1` (stereo not given), the “activity change, negative = inhibition” value was inactive: -16.1%.

In the case of `CC(C)/C=N\N=C(\N)N[N+](=O)[O-]`, the “activity change, negative = inhibition” value was inactive: -6.58%.

For `Cc1ccc(C(=O)OC2CN3CCC2CC3)cc1` (stereo not given), the “activity change, negative = inhibition” value was inactive: 8.57%.

Consider `CC1CCC(C(C)C)C(OP(=O)(Nc2ccccn2)c2ccccc2)C1` (stereo not given), for which the “activity change, negative = inhibition” value was inactive: -21.1%.

`Cc1nn(-c2ccccc2)c2c1P(=O)(N1CCOCC1)N(C)C(c1ccccc1)=N2` (stereo not given): the “activity change, negative = inhibition” value is inactive: 2%.

In the case of `CCCC1OP(=O)(Nc2ccccc2)OCC1CC` (stereo not given), the “activity change, negative = inhibition” value was inactive: -9.44%.

Turning to `O=C(/C=C/c1ccccc1)OC1CN2CCC1CC2` (stereo not given), the “activity change, negative = inhibition” value is inactive: -0.84%.

Regarding `CN(C)C1(CNC(=O)c2ccc(S(C)(=O)=O)cc2)CCCCC1`, the activity change, negative = inhibition was inactive: -0.727% [at 7.66 µM].

As for `O=P1(Nc2ncccn2)COc2ccccc2OC1`, the “activity change, negative = inhibition” value is inactive: -5.64%.

For `Cc1ccc(S(=O)(=O)N(CCCN)CCCc2c(C)nc(N)[nH]c2=O)cc1`, the “activity change, negative = inhibition” value is inactive: -24.6%.

Turning to `NS(=O)(=O)c1cccc(NC(=O)COC(=O)C(O)(c2ccccc2)c2ccccc2)c1`, the “activity change, negative = inhibition” value was inactive: 0.603%.

On to `O=P1(Nc2ccc(Br)cn2)COc2ccccc2OC1`, for which the “activity change, negative = inhibition” value was inactive: 6.02%.

On to `O=[As](O)(c1cccs1)c1cccs1`, for which the “activity change, negative = inhibition” value was inactive: -5.37%.

Regarding `Cc1ccc(OCC(=O)OC2CN3CCC2CC3)cc1` (stereo not given), the “activity change, negative = inhibition” value is inactive: -14.1%.

Regarding `Nc1cccc([As](=O)(O)c2ccccc2)c1`, the “activity change, negative = inhibition” value was inactive: -3.59%.

For `CC1CCNP(=O)(N(CCCl)CCCl)O1` (stereo not given), the “activity change, negative = inhibition” value was inactive: -4.39%.

With `O=C(O)C(O)c1ccc(N(CCCl)CCCl)cc1` (stereo not given), the “activity change, negative = inhibition” value was inactive: -5.28%.

Consider `CCOC(=O)Nc1ccc([As](=O)(O)O)c(O)c1`, for which the “activity change, negative = inhibition” value was inactive: -5.48%.

On to `Cc1cc(SC(NC(=O)c2ccccc2)C(Cl)(Cl)Cl)nc(C(C)C)n1` (stereo not given), for which the “activity change, negative = inhibition” value was inactive: 14.3%.

`CCCCOc1ccc(C(=O)NCC2(N3CCCCC3)CCCCC2)cc1OC`: the “activity change, negative = inhibition” value was inactive: -17%.

Consider `COP(=O)(OC)N1CC1c1ccccc1` (stereo not given), for which the “activity change, negative = inhibition” value is inactive: 8.55%.

Take `CCOC(=O)Nc1cccc([As](=O)(O)O)c1`: the “activity change, negative = inhibition” value is inactive: 9.53%.

With `O=[N+]([O-])c1ccc(Nc2ccc(Oc3ccc([N+](=O)[O-])cc3[N+](=O)[O-])cc2)c([N+](=O)[O-])c1`, the “activity change, negative = inhibition” value was inactive: 1.51%.

`Cc1cc(SC(NC=O)C(Cl)(Cl)Cl)ncn1` (stereo not given): the “activity change, negative = inhibition” value is inactive: -0.404%.

Regarding `O=P(Nc1ccccn1)(c1cccc2ccccc12)c1cccc2ccccc12`, the “activity change, negative = inhibition” value is inactive: -17.3%.

Turning to `COC(=O)C1(C)COP(=O)(N2CCCC2)OC1` (stereo not given), the “activity change, negative = inhibition” value is inactive: 2.67%.

`COP1(=S)c2c(C)nn(CCC#N)c2N=C(c2ccc(F)cc2)N1C` (stereo not given): the “activity change, negative = inhibition” value was inactive: -5.81%.

Regarding `O=C(Nc1ccncc1[N+](=O)[O-])c1ccc([N+](=O)[O-])cc1[N+](=O)[O-]`, the “activity change, negative = inhibition” value was inactive: -1.14%.

`O=C(COc1ccccc1)OC1CN2CCC1CC2` (stereo not given): the “activity change, negative = inhibition” value was inactive: -8.87%.
